Measured values: patent US20110207745A1 (priority 2009, published 2011)
Read-outs that look alike come from different tables or passages of the source.

Test system: Male Sprague Dawley rats
Details: rat; for Mean Escape Failures: 50 trials

Row | Structure (SMILES) | Mean Center Crossings (20 mg/kg by mouth twice a day) | Mean Escape Failures (20 mg/kg by mouth twice a day) | Mean Center Crossings (0.1 mg/kg by mouth twice a day) | Mean Escape Failures (0.1 mg/kg by mouth twice a day) | Mean Center Crossings (1 mg/kg by mouth twice a day) | Mean Escape Failures (1 mg/kg by mouth twice a day) | Mean Center Crossings (10 mg/kg by mouth twice a day) | Mean Escape Failures (10 mg/kg by mouth twice a day) | effect on escape failures in the learned helplessness test (indicative of potential antidepressant action)
1 | CN(C)CCCN1c2ccccc2CCc2ccccc21 [Imipramine, reference compound] | 30.2 | 2.3 | – | – | – | – | – | – | –
2 | CCN(CC)C(=O)c1ccc([C@H](c2cccc(N)c2)N2CCN(Cc3ccc(F)cc3)CC2)cc1 [Compound A1, 4-{(R)-(3-aminophenyl)[4-(4-fluorobenzyl)piperazin-1-yl]methyl}-N,N-diethylbenzamide] | – | – | 26.6 | 6.1 | 30.9 | 3.1 | 26.9 | 4.9 | decrease in escape failures
